Literature values, collected in publication PMC12503912 (Chemmedchem, 2025).

Conditions: metabolites of dolastatin 15, cemadotin and tasidotin; cited from earlier work

For NMe2Val-Val-NMe-Val-Pro-Pro [Peptide 1], the “cytotoxic / antimitotic activity of metabolite” value is listed as “even higher than that of tasidotin”.
